Compounds with a hit are over-represented: about 1.8% of the library has one in this group of screens.
UUG fidelity = modulators of start codon recognition fidelity in yeast; AID 602363; hit rate 0.13% among 350,000; activity score, % at 18.7 µM; S. cerevisiae UUG-firefly luciferase reporter, luminescence/redox ratio;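 active = replicate mean at a twofold rise or more, about +100% in these data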;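 note: firefly luciferase made from a UUG start codon reports start codon fidelity; reporter light over untreated wells divided by growth signal over untreated wells; some hits fall short of that in this replicate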
DENV2 CPE rescue = inhibitors of DENV2 cytopathic effect, primary screen, cell-based, plate reader, single concentration; DENV2-infected cells, cytopathic effect rescue; CPE inhibition, % at 9.99 µM; hit rate 1.7% among 350,000; in the data active = CPE inhibition above about 20%, passing the limit was not always enough; inconclusive = no clear call, values can overlap the other calls; tested in BHK-21 cells
E-sel inducer = E-selectin induction in HUVECs, primary screen, imaging, HUVEC, immunofluorescence imaging, single point. normalized: neutral wells 0, TNF-alpha wells 100. activation, % at 7.58 µM. AID 686992, 2013. hit rate 0.37% among 260,000. P16581;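 active = mean E-selectin-positive cell signal at least 10% of the positive control, reached in at least 60% of replicates, without over 20% cell loss; inconclusive = no rule given, readout overlaps actives, possibly toxicity-flagged; inactive = the rest, including those meeting only one limit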
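Read-out: % PE-positive cells | Test system: HUVEC | Doses: One compound dose added by pin transfer | Buffer or medium: EGM-2 over gelatin coat | Signal: Immunofluorescence imaging | Benchmarks: TNF-alpha, DMSO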
Cneo AK release = Cryptococcus neoformans cell lysis inducers, primary screen, AK release luminescence, single concentration; lysis activity, % at 15 µM; hit rate 0.2% among 360,000; C. neoformans lysis, adenylate kinase release luminescence, 4 h; normalised: neutral wells 0, clomiphene wells 100;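 active = mean lysis activity across replicates of at least 80%, whatever share of replicates individually reach that level; inactive = mean lysis activity below 80%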
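Assay system: log-phase C. neoformans yeast / Quantity: yeast cell density of 5 × 10^6 cells/mL / Medium: fresh YPD growth medium / Compound: single dose / Timing: static 4 h at 37 °C with compound, 1 h detection / Measured by: adenylate kinase release luminescence / Read-out: lysis from increased AK signal / Benchmarks: Clomiphene as positive lysis control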
Each line names hits and unclear results; the compound was inactive in the other large screens.

CCNC(=O)C1(C)CCN(Cc2noc(-c3c(C)noc3C)n2)C1 (stereo not given)	DENV2 CPE rescue 45
COCCNC(=O)C1(C)CCN(Cc2noc(-c3c(C)noc3C)n2)C1 (stereo not given)	none (no result: DENV2 CPE rescue, E-sel inducer)
O=C(c1cncc(Br)c1)N1CCN(S(=O)(=O)c2ccccc2C(F)(F)F)CC1	E-sel inducer 33 (no result: UUG fidelity, Cneo AK release)
Cc1cc(C(=O)N/N=C/C=C/c2ccc(Br)cc2)n[nH]1	DENV2 CPE rescue inconclusive
Cc1cc(C(=O)N/N=C/C=C/c2ccc([N+](=O)[O-])cc2)n[nH]1	E-sel inducer 54 (no result: UUG fidelity, Cneo AK release)
O=C(C[C@H]1C[C@@H]2c3cc(NC(=O)NC4CCCC4)ccc3O[C@@H]2[C@@H](CO)O1)NCc1ccc(Oc2ccccc2)cc1	none
C[C@H](CO)N1C[C@H](C)[C@@H](CN(C)Cc2ccc3c(c2)OCO3)Oc2ccc(NS(=O)(=O)c3ccc(Cl)cc3)cc2CC1=O	none
C[C@H](CO)N1C[C@H](C)[C@@H](CN(C)Cc2ccc3c(c2)OCO3)Oc2ccc(NS(=O)(=O)c3cn(C)cn3)cc2CC1=O	DENV2 CPE rescue 45
C[C@H]1CN([C@@H](C)CO)C(=O)Cc2cc(NS(=O)(=O)c3ccc(Cl)cc3)ccc2O[C@@H]1CN(C)Cc1ccc2c(c1)OCO2	DENV2 CPE rescue 23
C[C@H]1CN([C@@H](C)CO)C(=O)Cc2cc(NS(=O)(=O)c3cccs3)ccc2O[C@H]1CN(C)Cc1ccc2c(c1)OCO2	DENV2 CPE rescue 104
COc1ccc(S(=O)(=O)Nc2ccc3c(c2)CC(=O)N([C@@H](C)CO)C[C@H](C)[C@H](CN(C)Cc2ccc4c(c2)OCO4)O3)cc1	DENV2 CPE rescue 28
C[C@@H]1CN([C@H](C)CO)C(=O)Cc2cc(NS(=O)(=O)c3cn(C)cn3)ccc2O[C@H]1CN(C)Cc1ccc2c(c1)OCO2	none
C[C@@H]1CN([C@H](C)CO)C(=O)c2cccc(NS(=O)(=O)c3cccs3)c2O[C@@H]1CN(C)S(=O)(=O)c1cccs1	none
COc1ccc(NC(=O)Nc2cccc3c2O[C@H](CN(C)Cc2ccc(Oc4ccccc4)cc2)[C@H](C)CN([C@@H](C)CO)C3=O)cc1	none (no result: E-sel inducer)
Cc1ccc(C(=O)NC(=S)c2c(C)cc3ccccn23)cc1	DENV2 CPE rescue 85
O=C(C[C@@H]1CC[C@H]2[C@@H](COC[C@@H](O)CN2S(=O)(=O)c2cccc(Cl)c2)O1)N1CCOCC1	DENV2 CPE rescue 24
CN1CCN(C(=O)C[C@H]2CC[C@H]3[C@@H](COC[C@@H](O)CN3S(=O)(=O)c3cccc(Cl)c3)O2)CC1	DENV2 CPE rescue 76
O=C(C[C@@H]1CC[C@@H]2[C@H](COC[C@@H](O)CN2Cc2ccc(Oc3ccccc3)cc2)O1)N1CCCCC1	DENV2 CPE rescue 24
O=C(C[C@@H]1CC[C@@H]2[C@H](COC[C@@H](O)CN2S(=O)(=O)c2cccc(Cl)c2)O1)N1CCCCC1	none
COc1cccc(S(=O)(=O)N2C[C@@H](O)COC[C@@H]3O[C@H](CC(=O)N4CCCCC4)CC[C@H]32)c1	none
COc1cccc(S(=O)(=O)N2C[C@@H](O)COC[C@@H]3O[C@@H](CC(=O)N4CCCCC4)CC[C@H]32)c1	DENV2 CPE rescue 29
CN1CCN(C(=O)C[C@@H]2CC[C@@H]3[C@H](COC[C@@H](O)CN3S(=O)(=O)c3cccc(Cl)c3)O2)CC1	none
COc1ccc2c3c([nH]c2c1)[C@@H](CO)N(C(=O)C1CCC1)CC31CCN(C(=O)c2ccncc2)CC1	none (no result: UUG fidelity, Cneo AK release)
O=C(C[C@H]1C=C[C@H](NC(=O)Nc2cc(F)ccc2F)[C@H](CO)O1)NCc1ccccn1	DENV2 CPE rescue inconclusive
C[C@H]1CN([C@@H](C)CO)C(=O)c2cccc(NC(=O)c3cnccn3)c2O[C@@H]1CN(C)C(=O)Nc1ccccc1	none
COc1ccccc1CCN=C(N)NS(=O)(=O)c1ccc(F)cc1	DENV2 CPE rescue 55
COc1ccc(S(=O)(=O)NC(N)=NCCc2ccccc2OC)cc1	none (no result: E-sel inducer)
CO[C@H]1CC[C@H]2CCN(C)C(=O)[C@@H](C)N(C)C(=O)c3cccc(C#N)c3OC[C@@H]1O2	none (no result: UUG fidelity)
C[C@@H]1CN([C@@H](C)CO)C(=O)c2cc(NC(=O)CCC(F)(F)F)ccc2O[C@@H](C)CCCCO[C@H]1CN(C)Cc1ccc(C(=O)O)cc1	none
COC(=O)C1(C(=O)OC)c2ccccc2N(S(=O)(=O)c2ccc(C)cc2)C1CC(C)=O (stereo not given)	none (no result: UUG fidelity, Cneo AK release)
COC(=O)C1(C(=O)OC)c2ncccc2N(S(=O)(=O)c2ccc(C)cc2)C1CC(=O)c1ccccc1 (stereo not given)	DENV2 CPE rescue 21 (no result: UUG fidelity, Cneo AK release)
O=C(NCCc1ccncc1)[C@@H]1[C@@H](CO)[C@@H]2Cn3c(ccc(-c4ccccc4)c3=O)[C@H]1N2	none
Cc1ccc(S(=O)(=O)N(CC(=O)O)Cc2ccco2)cc1	DENV2 CPE rescue 28 (no result: UUG fidelity, E-sel inducer, Cneo AK release)
Cc1ccc(S(=O)(=O)N(Cc2ccccc2)Cc2ccco2)cc1	none (no result: DENV2 CPE rescue, E-sel inducer)
C[C@H]1CCCCO[C@H](CN(C)C(=O)Nc2ccc3c(c2)OCO3)[C@@H](C)CN([C@@H](C)CO)C(=O)c2cc(NC(=O)Cc3ccccc3)ccc2O1	DENV2 CPE rescue 27
CC(C)NC(=O)N(C)C[C@@H]1OCCCC[C@H](C)Oc2ccc(NC(=O)Cc3ccccc3)cc2C(=O)N([C@H](C)CO)C[C@H]1C	Cneo AK release 101 (no result: UUG fidelity)
CC(C)NC(=O)N(C)C[C@@H]1OCCCC[C@H](C)Oc2ccc(NC(=O)Cc3ccccc3)cc2C(=O)N([C@H](C)CO)C[C@@H]1C	none (no result: UUG fidelity)
CN(C)CC(=O)Nc1ccc2c(c1)[C@H]1C[C@@H](CC(=O)N3CCOCC3)O[C@H](CO)[C@H]1O2	none
CN1C(=O)c2cc(NC(=O)c3ccc(F)cc3)ccc2OC[C@H]2O[C@H](CC(=O)O)CC[C@H]21	DENV2 CPE rescue 35
O=C(CN1CCOCC1)Nc1ccc(Cl)cc1	none (no result: E-sel inducer)
Cc1ccc(C(=O)Nc2ccc3c(c2)OCO3)cc1Cl	none (no result: E-sel inducer)
CN1C(=O)c2cc(NC(=O)c3ccc4c(c3)OCO4)ccc2OC[C@H]2O[C@@H](CC(=O)O)CC[C@@H]21	DENV2 CPE rescue 40
Cc1ccc(NC(=O)CN2CCOCC2)cc1Cl	E-sel inducer 46
Cc1ccc(NC(=O)c2ccc3c(c2)OCO3)cc1Cl	DENV2 CPE rescue 22 (no result: E-sel inducer)
C[C@@H]1CCCCO[C@H](CN(C)Cc2ccc(C(F)(F)F)cc2)[C@@H](C)CN([C@@H](C)CO)C(=O)c2cc(NS(=O)(=O)c3cn(C)cn3)ccc2O1	none
CC(C)NC(=O)N(C)C[C@H]1Oc2ncc(-c3cncnc3)cc2C(=O)N([C@H](C)CO)C[C@@H]1C	none (no result: UUG fidelity, DENV2 CPE rescue, Cneo AK release)
CN(C)CC#Cc1ccc([C@@H]2[C@H]3CN(CC4CC4)CCCCN3[C@H]2CO)cc1	none
O=C(Cc1cccs1)NCCc1ccc(F)cc1	none (no result: E-sel inducer)
OCCc1ccc(NCCc2cccs2)cc1	DENV2 CPE rescue 21
C[C@H](O)C#Cc1ccc([C@@H]2[C@@H](CO)N3CCCCN(CC4CC4)C[C@H]23)cc1	none
CCCC#Cc1ccc([C@H]2[C@H](CO)N3CCCCN(CC4CCOCC4)C[C@@H]23)cc1	DENV2 CPE rescue 56

Screens deposited in PubChem by Broad Institute.
